Measurements reported in ChEMBL document CHEMBL6127132, “Design, Synthesis, and Biological Evaluation of Novel Diaminopyrimidine Macrocycles as Fourth Generation Reversible EGFR Inhibitors That Overcome Clinical Resistance to Osimertinib Mediated by C797S Mutation” (J Med Chem, 2024).

Protein sequences, listed by entry. Tags and fused reporters are not part of them. Residues count along the entry.
UniProt P00533, whole entry, looked up, stated change not applied: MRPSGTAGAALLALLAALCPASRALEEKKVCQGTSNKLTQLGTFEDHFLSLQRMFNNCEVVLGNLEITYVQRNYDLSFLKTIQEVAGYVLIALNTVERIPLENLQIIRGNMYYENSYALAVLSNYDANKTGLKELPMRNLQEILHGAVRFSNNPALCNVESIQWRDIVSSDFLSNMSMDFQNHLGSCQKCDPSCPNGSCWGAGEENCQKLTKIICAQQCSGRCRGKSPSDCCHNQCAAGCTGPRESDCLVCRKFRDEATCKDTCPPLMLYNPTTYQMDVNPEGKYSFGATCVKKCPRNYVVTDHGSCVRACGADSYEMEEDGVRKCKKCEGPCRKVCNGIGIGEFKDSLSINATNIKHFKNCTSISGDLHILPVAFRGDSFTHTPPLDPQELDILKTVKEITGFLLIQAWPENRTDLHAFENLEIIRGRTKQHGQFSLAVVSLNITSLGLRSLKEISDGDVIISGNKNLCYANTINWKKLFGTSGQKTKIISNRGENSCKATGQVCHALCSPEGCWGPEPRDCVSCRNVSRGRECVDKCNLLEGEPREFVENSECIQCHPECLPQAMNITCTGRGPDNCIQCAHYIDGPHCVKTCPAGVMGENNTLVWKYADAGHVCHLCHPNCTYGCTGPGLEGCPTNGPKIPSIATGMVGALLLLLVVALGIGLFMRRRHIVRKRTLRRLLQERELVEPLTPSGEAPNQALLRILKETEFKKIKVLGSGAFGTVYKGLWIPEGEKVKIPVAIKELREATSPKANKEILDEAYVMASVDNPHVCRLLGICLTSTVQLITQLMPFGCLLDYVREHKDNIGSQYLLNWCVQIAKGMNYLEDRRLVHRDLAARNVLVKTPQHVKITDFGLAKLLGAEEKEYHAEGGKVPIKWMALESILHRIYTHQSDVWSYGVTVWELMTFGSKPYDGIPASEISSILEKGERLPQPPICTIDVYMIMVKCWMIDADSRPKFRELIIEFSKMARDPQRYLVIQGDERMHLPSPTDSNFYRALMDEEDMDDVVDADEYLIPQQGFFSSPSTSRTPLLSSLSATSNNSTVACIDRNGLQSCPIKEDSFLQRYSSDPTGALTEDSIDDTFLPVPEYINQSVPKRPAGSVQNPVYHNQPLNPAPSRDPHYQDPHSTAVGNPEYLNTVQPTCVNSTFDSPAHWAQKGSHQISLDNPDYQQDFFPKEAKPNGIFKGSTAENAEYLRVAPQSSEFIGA
UniProt P00533, 25-1210 T790M/L858R limits assumed: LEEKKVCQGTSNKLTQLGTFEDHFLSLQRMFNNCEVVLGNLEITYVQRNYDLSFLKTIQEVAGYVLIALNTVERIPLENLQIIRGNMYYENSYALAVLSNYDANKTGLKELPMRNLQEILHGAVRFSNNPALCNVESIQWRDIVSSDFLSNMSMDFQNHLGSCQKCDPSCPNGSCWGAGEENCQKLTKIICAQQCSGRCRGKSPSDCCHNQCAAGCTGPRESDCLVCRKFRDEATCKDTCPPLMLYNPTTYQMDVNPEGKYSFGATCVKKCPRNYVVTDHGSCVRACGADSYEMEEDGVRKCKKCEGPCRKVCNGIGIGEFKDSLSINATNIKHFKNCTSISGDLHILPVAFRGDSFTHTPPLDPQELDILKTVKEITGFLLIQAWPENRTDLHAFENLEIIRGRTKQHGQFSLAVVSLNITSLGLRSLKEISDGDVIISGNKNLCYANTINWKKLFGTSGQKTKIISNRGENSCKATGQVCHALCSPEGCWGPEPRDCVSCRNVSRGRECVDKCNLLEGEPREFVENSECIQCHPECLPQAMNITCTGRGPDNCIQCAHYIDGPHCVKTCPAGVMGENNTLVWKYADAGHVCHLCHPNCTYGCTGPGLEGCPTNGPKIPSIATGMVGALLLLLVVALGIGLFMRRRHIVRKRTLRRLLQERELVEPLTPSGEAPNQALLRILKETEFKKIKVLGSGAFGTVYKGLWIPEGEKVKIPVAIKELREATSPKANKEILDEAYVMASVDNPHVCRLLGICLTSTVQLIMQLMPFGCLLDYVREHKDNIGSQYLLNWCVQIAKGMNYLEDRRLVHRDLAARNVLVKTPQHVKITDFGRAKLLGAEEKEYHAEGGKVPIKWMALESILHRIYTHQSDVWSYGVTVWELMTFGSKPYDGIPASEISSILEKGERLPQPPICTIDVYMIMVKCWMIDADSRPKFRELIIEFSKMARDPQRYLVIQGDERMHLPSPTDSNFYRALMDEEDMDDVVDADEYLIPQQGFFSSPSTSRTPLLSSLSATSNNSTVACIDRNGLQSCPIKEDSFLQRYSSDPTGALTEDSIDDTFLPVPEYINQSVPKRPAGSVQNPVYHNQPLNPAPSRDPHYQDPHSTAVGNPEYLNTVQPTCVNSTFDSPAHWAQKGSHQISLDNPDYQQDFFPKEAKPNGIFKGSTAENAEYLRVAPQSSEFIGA

Assays:
[1] = molecular target: Epidermal growth factor receptor (Homo sapiens, UniProt P00533, C797S/EX19DEL/T790M); test: Inhibition of recombinant N-terminal GST-tagged human EGFR 19del/T790M/C797S mutant (668 to end residues) extracted from Sf9 insect cells incubated for 1 hrs by spectrophotometric analysis; assay type: cell-free
[2] = molecular target: Epidermal growth factor receptor (Homo sapiens, UniProt P00533, L858R/T790M); test: Inhibition of recombinant N-terminal GST-tagged human EGFR T790M/L858R mutant (696 to end residues) extracted from baculovirus infect Sf21 insect cells incubated for 1 hrs by spectrophotometric analysis

SMILES: CCC(=O)Nc1cc(Nc2nccc(-c3cn(C)c4ccccc34)n2)c(OC)cc1N(C)CCN(C)C
- IC50 [1]: 0.28 µM
- IC50 [2]: 0.261 µM
